# The list shows a part of the results, in another mix than the full data. Results filed as inconclusive are left out. Calls of active or inactive are those of the source. Calls follow the shape of the dose curve; as a rule, active = well fitted activation curve with a large enough effect; inconclusive = small, poorly fitted or top-dose-only effect; inactive = no such curve, though single readings can be large or run the other way.
# Experiment: qHTS Assay for Rab9 Promoter Activators; also: % of control where 0% means no effect; nearly all actives have a fitted effect of over 60% in size
# Conditions: Huh7 Rab9 promoter-luciferase reporter, luminescence, 24 h; at 9.22 µM (top of the series)
row,SMILES,"activation, negative = inhibition"
1,Cc1ccccc1CN(C)C(=O)COC(=O)C(O)(c1ccccc1)c1ccccc1,inactive: -2.34%
